According to ChEMBL document CHEMBL3593176, “Design and biological evaluation of novel 4-(2-fluorophenoxy)quinoline derivatives bearing an imidazolone moiety as c-Met kinase inhibitors” (Bioorg Med Chem, 2015):

Assays:
[1] = organism: Homo sapiens; assay: Selectivity ratio of IC50 for VEGFR-2 (unknown origin) to IC50 for c-Met (unknown origin)
[2] = organism: Homo sapiens; assay: Selectivity ratio of IC50 for c-Kit (unknown origin) to IC50 for c-Met (unknown origin)
[3] = organism: Homo sapiens; assay: Selectivity ratio of IC50 for FLT-3 (unknown origin) to IC50 for c-Met (unknown origin)
[4] = organism: Homo sapiens; assay: Selectivity ratio of IC50 for Ron (unknown origin) to IC50 for c-Met (unknown origin)
[5] = organism: Homo sapiens; assay: Selectivity ratio of IC50 for EGFR (unknown origin) to IC50 for c-Met (unknown origin)

## COc1cc2c(Oc3ccc(NC(=O)c4[nH]c(=O)n(-c5ccccc5Cl)c4C)cc3F)ccnc2cc1OCCCN1CCN(C)CC1
[1]
  Ratio IC50: 65
[2]
  Ratio IC50: 27
[3]
  Ratio IC50: 94
[4]
  Ratio IC50: 190
[5]
  Ratio IC50: > 10000
